{"sequences": {"note": "The chains behind the UniProt entries cited, without tags or fusion partners.", "UniProt P34949, whole entry": "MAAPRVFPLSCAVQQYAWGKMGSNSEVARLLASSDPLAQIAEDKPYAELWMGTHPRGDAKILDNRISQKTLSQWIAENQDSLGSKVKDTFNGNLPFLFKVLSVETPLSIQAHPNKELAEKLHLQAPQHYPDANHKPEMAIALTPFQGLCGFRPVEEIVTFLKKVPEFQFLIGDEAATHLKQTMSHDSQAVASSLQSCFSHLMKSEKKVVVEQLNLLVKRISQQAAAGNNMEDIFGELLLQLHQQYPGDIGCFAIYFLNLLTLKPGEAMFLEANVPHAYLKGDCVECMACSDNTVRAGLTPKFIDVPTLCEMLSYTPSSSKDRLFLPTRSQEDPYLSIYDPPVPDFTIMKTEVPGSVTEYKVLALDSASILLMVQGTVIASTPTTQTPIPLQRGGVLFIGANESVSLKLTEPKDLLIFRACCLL"}, "source": "PubChem BioAssay AID1209", "about": "(Sanford-Burnham Center for Chemical Genomics, 2008)", "note": "Only a part is listed here, and it is no random draw. Some tests of the compounds listed are not included; inactive here does not mean inactive elsewhere. Calls of active or inactive are those of the source. Cut-off read from the data, not from the text of the source: active = inhibition above about 50%; inactive = the rest."}
{"target": "Mannose-6-phosphate isomerase (Homo sapiens) (UniProt P34949)", "experiment": "inhibitors of human PMI, primary screen, biochemical, fluorescence intensity, coupled assay (AID 1209);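 note: plate controls were DMSO vehicle for no effect and wells lacking substrate for full effect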", "details": "purified PMI enzyme, at 20 µM, stronger effect = higher value"}
{"molecule": "O=C(OC1CN2CCC1CC2)C(CO)(c1ccccc1)c1ccccc1", "note": "(centres undefined)", "inhibition": "inactive: 0%"}
{"molecule": "CN(C)c1cccc(C(=O)NCC2(N(C)C)CCCCC2)c1", "inhibition": "inactive: 9.6%"}
{"molecule": "COc1cccc(C(=O)NCC2(N3CCCCC3)CCCCC2)c1", "inhibition": "inactive: 10.2%"}
{"molecule": "Cc1ccccc1C(=O)NCC1(N2CCCCC2)CCCCC1", "inhibition": "inactive: 3%"}
{"molecule": "CN(C)C1CCCC1OC(=O)C(O)(c1ccccc1)c1ccccc1", "note": "(centres undefined)", "inhibition": "inactive: -3%"}
{"molecule": "CCN1CCCC(OC(=O)C2(O)c3ccccc3C=Cc3ccccc32)C1", "note": "(centres undefined)", "inhibition": "inactive: -3.3%"}
{"molecule": "C=CCN1CCN(CCOC(=O)C(O)(c2ccccc2)c2ccccc2)CC1", "inhibition": "inactive: -18.3%"}
{"molecule": "O=C(NCC1(N2CCCCC2)CCCCC1)c1cc([N+](=O)[O-])ccc1Cl", "inhibition": "inactive: -10.5%"}
{"molecule": "CC(C)N1C(=O)CC2(CCN(CCOC(=O)C(O)(c3ccccc3)c3ccccc3)CC2)C1=O", "inhibition": "inactive: -1.3%"}
